Data: BindingDB's records for doi:10.1021/jm950721m (Warner-Lambert, 1996)

Assay: Compound was evaluated for effective concentration […] for Dopamine receptor D2 mitogenesis. (95% confidence intervals)

**Q.** Which EC50 does the source give for Oc1ccc2[nH]cc(CCCCN3CC=C(c4ccccc4)CC3)c2c1 here?
**A.** Its EC50 is 370 pM.
